Reference: ChEMBL document CHEMBL1240329, “Identification and mechanistic characterization of low-molecular-weight inhibitors for HuR” (Nat Chem Biol, 2007)

What was measured:
Assay type in all cases: functional
Monocyte [1] = experiment: Inhibition of COX-2 gene expression in LPS/INF-gamma-stimulated human primary monocytes by RT-PCR analysis
Monocyte [2] = experiment: Inhibition of IL1-beta gene expression in LPS/INF-gamma-stimulated human primary monocytes by RT-PCR analysis
Monocyte [3] = experiment: Inhibition of IL-6 gene expression in LPS/INF-gamma-stimulated human primary monocytes by RT-PCR analysis

Measured: inhibition

Cc1occ2c1C(=O)c1c(O)ccc(O)c1C2
active: Monocyte [1] Dose-dependent effect | Monocyte [2] Dose-dependent effect | Monocyte [3] Dose-dependent effect
